From article doi:10.1101/2023.01.16.524197 (bioRxiv, 2023)

Target: T1, PD-L2-His-biotin (human, UniProt Q9BQ51 20-220, biotin)
T1 construct: PD-L2 with His tag, biotinylated; source: bought: Sino Biological
T1 sequence (looked up): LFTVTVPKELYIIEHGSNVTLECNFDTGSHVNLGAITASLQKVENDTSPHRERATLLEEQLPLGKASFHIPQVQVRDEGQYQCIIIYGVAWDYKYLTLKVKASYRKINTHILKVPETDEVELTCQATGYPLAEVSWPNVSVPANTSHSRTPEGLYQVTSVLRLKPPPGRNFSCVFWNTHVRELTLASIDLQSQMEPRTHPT
Assay: ELISA; competition: PD-1-mFc coated at 2 μg/mL; 1 μg/mL PD-L2-His-biotin with 0.003-18 μg/mL antibody, 2 h; streptavidin/HRP
Details: both partners purified

- binding result: binds
B1: PD-1-mFc (Fc fusion, human, UniProt Q15116 25-170, looked up)
chain: LDSPDRPWNPPTFSPALLVVTEGDNATFTCSFSNTSESFVLNWYRMSPSNQTDKLAAFPEDRSQPGQDCRFRVTQLPNGRDFHMSVVRARRNDSGTYLCGAISLAPKAQIKESLRAELRVTERRAEVPTAHPSPSPRPAGQFQTLV
notes: also called PD-1-Fc; human PD-1-mFc; source: bought: Sino Biological
